Only a part is listed here, and it is no random draw. Some structures have more than one record in an assay (separate samples or runs), and their calls can disagree. Activity calls are given as the source filed them. Cut-off read from the data, not from the text of the source: active = growth inhibition above about 70%; inactive = the rest.
Assay: NCI Yeast Anticancer Drug Screen. Data for the mlh1 strain (AID 171);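 note: 0% = growth of vehicle-treated control cultures of the same strain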
Conditions: S. cerevisiae mlh1 strain growth inhibition, active compounds read high
Method: Growth inhibition of yeast strains with defined genetic alterations is measured as a screen for potential anti-cancer activity. Selected strains with alterations in DNA damage repair or cell cycle control were exposed to compounds and growth inhibition was measured relative to vehicle treated controls. The strain used in this assay is mlh1

Measured: growth inhibition

Cc1cccc(C[N+](C)(CCCl)CCCl)c1[N+](=O)[O-]
inactive: at 1.2 µM -2% | at 3.7 µM -4% | at 11.0 µM 10% | at 33.0 µM 48%
active: at 100.0 µM 90%

Cc1ccc([N+](=O)[O-])c(C[N+](C)(CCCl)CCCl)c1
active: at 100.0 µM 93%
inactive: at 1.2 µM -28% | at 3.7 µM -27% | at 11.0 µM 11% | at 33.0 µM 41%

COc1ccc([N+](=O)[O-])c(C[N+](C)(CCCl)CCCl)c1
inactive: at 1.2 µM 8% | at 3.7 µM 10% | at 11.0 µM 10% | at 33.0 µM 18% | at 100.0 µM 43%

ClCCN1CCCCC1CCl (stereo not given)
inactive: at 1.2 µM -1% | at 3.7 µM -1% | at 11.0 µM 1% | at 33.0 µM 7% | at 100.0 µM 35%

COc1ccc(C[N+](C)(CCCl)CCCl)c([N+](=O)[O-])c1
inactive: at 1.2 µM 1% | at 3.7 µM 6% | at 11.0 µM 9% | at 33.0 µM 15% | at 100.0 µM 16%

Cn1cnc([N+](=O)[O-])c1C[N+](C)(CCCl)CCCl
active: at 100.0 µM 77%
inactive: at 1.2 µM -22% | at 3.7 µM -8% | at 11.0 µM 8% | at 33.0 µM 38%

From PubChem BioAssay (NCI)
